# Apparent affinities of Ab-91 variants for a coronavirus HR2 peptide

Reference: Engelhart et al. 2022, doi:10.1038/s41597-022-01779-4. File: FLAb, binding data.

Target peptide (SARS-CoV-2 spike, HR2 region): PDVDLGDISGINAS

Parent scFv Ab-91: VL joined to VH by three GGGGS repeats. Changes lie in the heavy chain CDRs alone.
VL: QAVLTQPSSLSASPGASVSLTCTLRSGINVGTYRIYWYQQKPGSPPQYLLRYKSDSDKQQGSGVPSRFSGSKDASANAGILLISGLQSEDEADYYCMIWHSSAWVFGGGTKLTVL
VH: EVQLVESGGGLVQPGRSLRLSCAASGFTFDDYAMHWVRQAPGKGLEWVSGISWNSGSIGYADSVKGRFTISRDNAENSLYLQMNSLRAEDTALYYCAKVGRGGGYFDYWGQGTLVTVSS

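The parent was found by panning a naive human phage display library on the peptide. AAYL51 was designed without a model: most single CDR substitutions and a random sample of double and triple ones. In AlphaSeq, yeast of one mating type display the scFv and yeast of the other type display the target. Mating (16 h, 30 °C) was followed by selection of diploids and sequencing of their barcodes. Read counts were normalised to the haploid input and turned into Kd by a linear fit to BCL2-family pairs of known affinity, for each replicate. There are three technical replicates.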

Substitutions are numbered in sequence along the VH above, starting at 1 (not Kabat). Affinities are written as log10 Kd with Kd in nM; a lower number is a better binder. Replicates are averaged; those with no signal do not enter the mean. "not detected" marks a missing value. The strain was present, yet no cells mated with the target were sequenced in any replicate, which points to weak or no binding. Background: pairings of library AAYL51 with three empty control strains gave a value in 21% of cases (median 4.54, 5th percentile 3.26). Values in that range, when seen in few replicates, are hard to tell from nonspecific mating. Also given: how often the same scFv was detected with the empty control strains.

| changes | mean log10 Kd (nM) | detected | empty controls |
|---|---|---|---|
| V99D+D107M | 4.81 | 1 of 3 | 2 of 9 |
| H35E+N54Y+Y60F | not detected | 0 of 3 | 2 of 9 |
| I51H+K65I | not detected | 0 of 3 | 0 of 9 |
| G50S+S57A+D107W | not detected | 0 of 3 | 0 of 9 |
| D30M+F106H | 3.22 | 1 of 3 | 0 of 9 |
| S52T+S57V+G102M | 3.22 | 1 of 3 | 1 of 9 |
| G50P+G59A | 4.69 | 2 of 3 | 4 of 9 |
| D62C+D107K+Y108A | 5.21 | 1 of 3 | 0 of 9 |
| Y32S+W53T+G59W | not detected | 0 of 3 | 5 of 9 |
| G26P+W53E+G56M | not detected | 0 of 3 | 1 of 9 |
| Y32G+H35K+F106W | 5.86 | 2 of 3 | 3 of 9 |
| V64G+G104S+Y108R | not detected | 0 of 3 | 0 of 9 |
| D31K+S57I+G104C | not detected | 0 of 3 | 1 of 9 |
| I51V+S52F+G103Q | 4.92 | 1 of 3 | 2 of 9 |
| S52W+W53H+D107W | 4.29 | 2 of 3 | 3 of 9 |
| W53I+D107A+Y108K | 4.74 | 1 of 3 | 4 of 9 |
| S55F+G59E+F106G | 4.30 | 1 of 3 | 3 of 9 |
| G50S+G59S+R101N | 5.87 | 1 of 3 | 1 of 9 |
| F27P+Y32S+S63H | not detected | 0 of 3 | 3 of 9 |
| D31L+G59R | 5.48 | 1 of 3 | 3 of 9 |
| D31I+G104N+Y108W | not detected | 0 of 3 | 0 of 9 |
| G59M+G100K | 4.36 | 1 of 3 | 2 of 9 |
| I58R+A61Q+D62P | 1.77 | 3 of 3 | 6 of 9 |
| G59L+G104L | 4.26 | 2 of 3 | 7 of 9 |
| A61W+V64S+Y105V | not detected | 0 of 3 | 0 of 9 |
| F29I+S55E+Y60C | 3.93 | 1 of 3 | 0 of 9 |
| H35S+V64R+R101H | 5.73 | 2 of 3 | 1 of 9 |
| I51K+Y60R+A61T | 4.27 | 1 of 3 | 3 of 9 |
| G56L+G59N+G100E | 3.35 | 1 of 3 | 1 of 9 |
| G26M+F106D+D107L | not detected | 0 of 3 | 0 of 9 |
| S52C+S55W+S57T | not detected | 0 of 3 | 1 of 9 |
| F29H+D30Y+G100R | not detected | 0 of 3 | 3 of 9 |

Continued, with the values leading:

| mean log10 Kd (nM) | detected | empty controls | changes |
|---|---|---|---|
| not detected | 0 of 3 | 3 of 9 | A61C+D62H+V64Y |
| 0.82 | 3 of 3 | 2 of 9 | D31R+S52N+Y108A |
| 6.25 | 1 of 3 | 1 of 9 | A33R+S57M+D62G |
| 5.30 | 1 of 3 | 3 of 9 | S52I+N54H+G100M |
| 6.00 | 2 of 3 | 4 of 9 | Y32F+S52E+G104S |
| 4.12 | 1 of 3 | 2 of 9 | A33D+D62S+G102V |
| not detected | 0 of 3 | 1 of 9 | Y60S+V99H+F106Q |
| 5.88 | 1 of 3 | 3 of 9 | Y32V+H35I+I51G |
| 5.44 | 3 of 3 | 8 of 9 | F27A+D30W+I58K |
| not detected | 0 of 3 | 1 of 9 | A33R+G50M+D107K |
| 4.93 | 3 of 3 | 7 of 9 | G26L+V99N+D107I |
| 5.58 | 1 of 3 | 4 of 9 | Y32I+S55R |
| 3.59 | 3 of 3 | 6 of 9 | F27L+R101F |
| not detected | 0 of 3 | 1 of 9 | H35N+S57N |
| 4.97 | 1 of 3 | 1 of 9 | D31Q+G59Y+D62A |
| 5.75 | 1 of 3 | 1 of 9 | H35Y+G50V+F106E |
| 5.08 | 3 of 3 | 7 of 9 | F29T+S55H+G100R |
| 2.18 | 3 of 3 | 3 of 9 | V64M+G104T+F106W |
| 5.45 | 1 of 3 | 2 of 9 | M34E+G56Y+Y105L |
| not detected | 0 of 3 | 0 of 9 | H35L+G59Q+Y108T |
| 1.51 | 3 of 3 | 0 of 9 | A33G+G56M+G104N |
| not detected | 0 of 3 | 1 of 9 | G50E+G59Y |
| not detected | 0 of 3 | 0 of 9 | S52K+G56C+F106V |
| 2.32 | 3 of 3 | 4 of 9 | D30C+D31H+K65H |
| not detected | 0 of 3 | 0 of 9 | D31C+G50I+F106K |
| 4.76 | 2 of 3 | 5 of 9 | T28A+G102C+F106S |
| not detected | 0 of 3 | 2 of 9 | Y32L+H35M+G103C |
| 4.38 | 3 of 3 | 6 of 9 | D30C+I58P+K65H |
| not detected | 0 of 3 | 1 of 9 | H35W+G56A+A61T |
| 4.73 | 3 of 3 | 4 of 9 | M34G+S52L+S63K |
| 4.08 | 1 of 3 | 6 of 9 | S57F+Y105G+Y108S |
| 1.91 | 3 of 3 | 1 of 9 | A61V+F106L+Y108N |
| 4.44 | 1 of 3 | 2 of 9 | T28A+M34T+G103D |

For reference, 6 entries of the list once more:

| changes | mean log10 Kd (nM) | detected | empty controls |
|---|---|---|---|
| T28A+G102C+F106S | 4.76 | 2 of 3 | 5 of 9 |
| I51H+K65I | not detected | 0 of 3 | 0 of 9 |
| M34G+S52L+S63K | 4.73 | 3 of 3 | 4 of 9 |
| A61V+F106L+Y108N | 1.91 | 3 of 3 | 1 of 9 |
| G50E+G59Y | not detected | 0 of 3 | 1 of 9 |
| A61W+V64S+Y105V | not detected | 0 of 3 | 0 of 9 |